Experimental data reported in patent US12624173B2, “Biodegradable polymeric compositions, methods of preparation and uses thereof” (B.G. NEGEV TECHNOLOGIES AND APPLICATIONS LTD., AT …, priority 2019, dated 2026).

Assay: Insulin distribution in brain and plasma 1 h after intranasal, iv and sc administration (ELISA)
Assay type: in vivo
Conditions: rat, 36 μg/kg; for B/P ratio (insulin) / Brain Level (insulin) / Plasma level (insulin): 1 h after administration; for Brain Level (insulin) / Plasma level (insulin): ELISA
Description: Formulation INS-01 was used for intranasal administration. The administered dose used in each animal was 28 μg INS/kg body weight. The applied volume was approximately 15 μL/nostril. For intravenous (iv) and subcutaneous (sc) administrations, a solution of insulin for injection was prepared by dissolving human insulin in a sterile saline solution to obtain a concentration of 90 μg/ml. A volume of 0.1 ml of the solution (9 μg dose, i.e. 36 μg/kg) was injected into the tail vein of a sedated animal, or under the loose skin over the neck. […] After 60 minutes from administration, the animals were euthanized by CO2 aspiration.

[1] = IV injection of insulin solution
[2] = SC administration of insulin solution

insulin
insulin brain level (mean) (1 h after iv administration): 1.87 ng/g | insulin brain level (mean) (1 h after sc administration): 3.52 ng/g | B/P ratio (insulin) [1]: 0.41 | Brain Level (insulin) [1]: 1.87(±1.08) ng/g | Plasma level (insulin) [1]: 4.56 (±1.60) ng/ml | B/P ratio (insulin) [2]: 1.33 | Brain Level (insulin) [2]: 3.52(±0.40) ng/g | Plasma level (insulin) [2]: 2.65 (±0.16) ng/ml
